These are literature values, as cited in publication PMC2957921, “Evaluation of Computational Docking to Identify Pregnane X Receptor Agonists in the ToxCast Database” (Environmental Health Perspectives, 2010).

Sequences of proteins named here, by UniProt entry; tags and fusion partners are left off. A change or cut given only in a name is not applied to a line headed by its entry.
UniProt O75469: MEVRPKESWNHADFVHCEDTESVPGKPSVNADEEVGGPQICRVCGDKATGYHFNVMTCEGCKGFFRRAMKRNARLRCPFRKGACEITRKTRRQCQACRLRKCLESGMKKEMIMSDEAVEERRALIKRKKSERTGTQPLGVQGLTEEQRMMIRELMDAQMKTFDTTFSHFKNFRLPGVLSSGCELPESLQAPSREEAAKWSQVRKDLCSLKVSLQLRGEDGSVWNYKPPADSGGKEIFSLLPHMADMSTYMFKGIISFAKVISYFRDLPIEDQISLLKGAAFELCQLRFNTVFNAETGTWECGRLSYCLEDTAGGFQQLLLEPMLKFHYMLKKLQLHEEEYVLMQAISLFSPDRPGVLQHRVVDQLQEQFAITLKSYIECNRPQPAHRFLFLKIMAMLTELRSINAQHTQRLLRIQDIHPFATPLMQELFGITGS

For this data set, the target named is hPXR (Homo sapiens, UniProt O75469). The following applies: DPX-2 cells, ref Judson et al. 2010, cited from earlier work.

Consider `CC(C)OP(=S)(OC(C)C)SCCNS(=O)(=O)c1ccccc1`, for which the “U.S. EPA ToxCast (NCGC) hPXR DPX-2 classification” value (cutoff for activity 200 μM) is reported as “A (A, agonist)”. In addition, the EC50 (usually the concentration needed to bring the measured effect to its halfway point) (read-out: U.S. EPA ToxCast (NCGC) hPXR DPX-2 EC50) is 1.57 µM.
